Measured values reported in ChEMBL document CHEMBL1143615, “Synthesis and structure-activity relationship of fluoro analogues of 8-{2-[4-(4-methoxyphenyl)piperazin-1yl]ethyl}-8-azaspiro[4.5]decane-7,9-dione as selective alpha(1d)-adrenergic receptor antagonists” (J Med Chem, 2005).

Target: T1, Alpha-1A adrenergic receptor (Homo sapiens, UniProt P35348)
T1 sequence (P35348 whole entry): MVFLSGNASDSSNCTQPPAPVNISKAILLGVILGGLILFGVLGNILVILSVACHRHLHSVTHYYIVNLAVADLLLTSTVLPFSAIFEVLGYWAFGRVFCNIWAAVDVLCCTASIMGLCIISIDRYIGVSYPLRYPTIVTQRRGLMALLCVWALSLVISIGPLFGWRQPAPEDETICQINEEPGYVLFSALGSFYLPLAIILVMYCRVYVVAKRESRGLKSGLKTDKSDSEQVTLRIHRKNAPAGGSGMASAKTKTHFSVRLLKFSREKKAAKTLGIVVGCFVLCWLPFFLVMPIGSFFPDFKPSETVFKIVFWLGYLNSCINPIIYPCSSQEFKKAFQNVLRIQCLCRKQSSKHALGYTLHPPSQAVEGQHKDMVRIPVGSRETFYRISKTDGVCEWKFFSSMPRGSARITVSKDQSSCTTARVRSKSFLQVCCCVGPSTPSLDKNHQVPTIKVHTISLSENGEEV
Experiment: Binding affinity for human Alpha-1A adrenergic receptor

COc1ccccc1N1CCN(CCN2C(=O)CC3(CCCC3)CC2=O)CC1 [BMY-7378]
Ki: 290 nM
